The values that follow come from PubChem BioAssay AID434962 (The Scripps Research Institute Molecular Screening Center, 2010).

Chains of the proteins cited; added tags and fusions are not shown.
UniProt P14735, whole entry, looked up: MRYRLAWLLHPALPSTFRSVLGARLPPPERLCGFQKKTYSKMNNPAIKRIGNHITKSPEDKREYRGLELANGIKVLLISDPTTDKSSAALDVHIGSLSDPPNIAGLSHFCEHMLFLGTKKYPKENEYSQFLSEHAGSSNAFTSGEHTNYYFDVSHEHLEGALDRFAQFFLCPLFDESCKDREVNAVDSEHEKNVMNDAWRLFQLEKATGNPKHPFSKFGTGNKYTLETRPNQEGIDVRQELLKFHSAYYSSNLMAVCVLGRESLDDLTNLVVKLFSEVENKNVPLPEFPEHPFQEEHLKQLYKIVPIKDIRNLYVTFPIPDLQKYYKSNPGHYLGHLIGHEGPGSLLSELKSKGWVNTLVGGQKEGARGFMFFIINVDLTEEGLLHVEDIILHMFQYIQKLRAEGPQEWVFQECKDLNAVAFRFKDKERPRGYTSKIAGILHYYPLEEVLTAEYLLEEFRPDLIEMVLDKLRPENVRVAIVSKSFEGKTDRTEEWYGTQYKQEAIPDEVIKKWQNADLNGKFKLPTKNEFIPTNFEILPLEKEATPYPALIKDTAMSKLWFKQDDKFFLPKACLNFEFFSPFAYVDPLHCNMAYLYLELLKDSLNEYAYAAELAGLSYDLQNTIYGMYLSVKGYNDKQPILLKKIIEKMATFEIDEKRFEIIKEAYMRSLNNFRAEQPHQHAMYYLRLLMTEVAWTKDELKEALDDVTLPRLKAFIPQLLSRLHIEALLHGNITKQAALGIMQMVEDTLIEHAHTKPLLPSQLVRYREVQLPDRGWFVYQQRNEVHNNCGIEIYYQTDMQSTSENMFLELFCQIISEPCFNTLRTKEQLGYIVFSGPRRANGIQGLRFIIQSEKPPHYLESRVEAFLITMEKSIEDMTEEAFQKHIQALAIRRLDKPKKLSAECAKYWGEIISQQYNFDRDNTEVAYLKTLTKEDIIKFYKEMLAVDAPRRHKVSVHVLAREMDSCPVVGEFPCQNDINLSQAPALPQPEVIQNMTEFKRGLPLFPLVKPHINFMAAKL

The entries are a selection whose mix differs from that of the whole data set. Activity calls are given as the source filed them.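 The calls were made as follows: active = percent inhibition above the average of all tested compounds plus 3 SD, set per screening campaign (cut at about 16% in these data); inactive = the rest.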

This experiment has as its target Insulin-degrading enzyme (Homo sapiens) (UniProt P14735). The experiment is described as follows: human IDE inhibitors in live cells, primary screen, fluorescence polarization, HEK cells, FAbetaB substrate (AID 434962).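 Also: IDE supplied by intact live HEK cells; FP after avidin binding of uncleaved biotin substrate so inhibition keeps polarization high; 0% = DMSO wells and 100% = 60 µM reference IDE inhibitor Ii1.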 To be noted: FAbetaB cleavage, at 5.59 µM, active compounds read high. Background: Polarisation of emitted light reports the rotation of a fluorescent probe.
The inhibition is the change of the read-out against control, counted positive when it falls. Consider `O=c1c2ccccc2[se]n1-c1ccccc1`, for which the inhibition is active: 100%.
